The assay deals with T1, human GLP-1 receptor (Homo sapiens, UniProt P43220).
T1 construct: expressed in transfected cells; purified plasma membranes
The assay is described as follows: Assay (XI) GLP-1 activity assay, stimulation of cAMP formation. Type of assay: biochemical. To be noted: membranes of BHK467-12A cells expressing human GLP-1 receptor. The source says:
The capture of cAMP is achieved by using a specific antibody conjugated to acceptor beads.

By UniProt entry, the sequences of proteins in these tests, tags left out. Residues count along the entry.
UniProt P43220, 24-463: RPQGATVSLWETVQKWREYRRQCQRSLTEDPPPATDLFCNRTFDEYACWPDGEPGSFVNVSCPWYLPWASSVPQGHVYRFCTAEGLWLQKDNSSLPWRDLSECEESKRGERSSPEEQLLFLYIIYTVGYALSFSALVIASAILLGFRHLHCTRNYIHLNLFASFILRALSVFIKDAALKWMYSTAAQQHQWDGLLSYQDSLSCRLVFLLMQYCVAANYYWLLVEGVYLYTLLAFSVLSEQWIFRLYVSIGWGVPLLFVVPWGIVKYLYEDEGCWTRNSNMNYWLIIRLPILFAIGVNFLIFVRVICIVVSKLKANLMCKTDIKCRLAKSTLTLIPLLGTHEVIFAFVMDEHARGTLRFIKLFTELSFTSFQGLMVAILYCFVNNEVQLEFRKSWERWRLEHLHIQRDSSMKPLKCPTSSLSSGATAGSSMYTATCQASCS

Data on one substance can be found in US20130012432A1, “Peptides for Treatment of Obesity” (Novo Nordisk A/S, priority 2010, published 2013).

Consider “N-epsilon37-[2-(2-{2-[2-(2-{2-[(S)-4-Carboxy-4-({trans-4-[(19-carboxynonadecanoylamino)methyl]cyclohexanecarbonyl}amino)butyrylamino]ethoxy}ethoxy)acetylamino]ethoxy}ethoxy)acetyl][DesaminoHis7,Glu22,Arg26,Arg34,Lys37]GLP-1-(7-37) [Example G2]”, for which the “EC50 relative to that of compound G1” value is “about 5 times”.
